Columns and labels:
[1] = cited from earlier work

Row | Substance | Solubility (gm solute per 100 gm water at 20° C.) [1] | Heat Absorbed (during dissolution of compound in 100 gm of water at 25° C. in kJ) (saturated solution in 100 gm of water at 25° C.) | Theoretical Change in Temperature of a saturated solution (° C.) (saturated solution, no heat loss)
1 | ammonium nitrite | 150 gm solute per 100 gm water |  | 
2 | ammonium thiocyanide | 144 gm solute per 100 gm water |  | 
3 | sodium perchlorite dihydrate |  | 32.22 kJ | 26 °C

From patent US9039924B2 (priority 2010, dated 2015)
